From patent publication US20140235578A1, “METHODS FOR TREATING NEOPLASIA AND FOR IDENTIFYING COMPOSITIONS USEFUL IN SUCH THERAPY” (priority 2007, published 2014)

How the values were obtained:
H9C2 cardiomyocytes [1] = experiment: γ-H2AX DNA damage signal by Western blotting; type: cell-based
Description: Cell lysates were analyzed by Western blotting using anti-γ-H2AX or anti-α-tubulin antibody (for assessing protein loading). […] Cells were then lysed and analyzed by Western blotting using anti-γ-H2AX or anti-α-tubulin antibody. […] Cells were then lysed and analyzed by Western blotting using anti-γ-H2AX or anti-α-tubulin antibody.
(§1) Vitamin C and NAC were added 30 min prior to doxorubicin. Cell lysates were then analyzed by Western blotting using anti-γ-H2AX or anti-α-tubulin antibody. […] Cell lysates were then analyzed by Western blotting (upper panel) using anti-γ-H2AX or anti-α-tubulin antibody. Quantification of γ-H2AX signals is shown in the lower panel. C, H9C2 cells were treated with 0.1% DMSO (labeled DMSO), bortezomib (1 μM) or MG132 (4 μM) for 30 min, followed by co-treatment with either 0.1% DMSO (labeled control) or 0.5 μM doxorubicin (labeled Doxo) for 1.5 hrs. Neutral comet assay was then performed as described in Materials and Methods. The average comet tail moments were plotted as histograms (mean±SEM). *p-value<0.001, t-test.

H9C2 cardiomyocytes [2] = type: cell-based
Description: as §1
The amount of Top2 cleavage complexes was measured by a band depletion assay as described in Materials and Methods. Cells were lysed either immediately or after reversal of the Top2 cleavage complexes (labeled R+250). Cell lysates were analyzed by Western blotting using anti-Top2α/Top2β or anti-α-tubulin antibody. […] Cells were then lysed and protein levels of Top2α, and Top2β isozymes were determined by Western blotting. […] Cell lysates were immunoblotted using anti-Top2β antibody. D, H9C2 cells were treated with ICRF187 (100 μM) for 4 hrs, followed by treatment with doxorubicin (Doxo, 0, 0.5 and 1 μM) for 1.5 hrs. […]

## C[C@@H](CN1CC(=O)NC(=O)C1)N1CC(=O)NC(=O)C1 [dexrazoxane]
H9C2 cardiomyocytes [1]
  effect on doxorubicin-induced γ-H2AX signal: completely blocked
H9C2 cardiomyocytes [2]
  effect on doxorubicin-induced comet tail moment: effectively reduced
